Test results from patent US11918822B2, “Compositions and methods for enhancing the biological response to chemical agents and physical stimuli” (The Research Foundation for the State University of New York, priority 2010, dated 2024).

Tested on: C3H10T1/2 MSC
Assay: Osteoblast marker mRNA (PTHR1, osteocalcin) in MSC after adipogenic culture, real-time RT-PCR
Assay type: cell-based
Conditions: 100 ng/nl in multi-potential medium after seven days in adipogenic medium; control and LIV treated cultures
Protocol: C3H10T1/2 embryonic mesenchymal stem cells were maintained in growth medium (α-MEM, 10% FBS, 100 µg/ml penicillin/streptomycin). Cells were plated at a density of 6,000-10,000 cells per cm^2 in collagen-I coated silicone membrane plates and cultured for two days before loading protocols began. Adipogenic medium included 0.1 μM dexamethasone, 5 μg/ml insulin, and in some cases, 50 μM indomethcin. If noted, MSC wee transfected with siRNA (100 nm) in serum-free OptiMEM overnight before replacing the medium. Multi-potential medium contained 50 μg/ml ascorbic acid, 1 μM β-glycerophosphate, 10 nM dexamethasone, nM all trans-retinoic acid, 5 μg/mi insulin, 0.5 mM 3-isobutyl-1-methylxanthine (IBMX).
Real-time RT-PCR: Total RNA was isolated by using the RNeasy Plus Mini kit (Qiagen). Reverse transcription was performed with 1 μg of RNA in a total volume of 20 μl per reaction. Real time PCR was performed on a BioRad iCycler (Hercules, CA). 25 μl amplification reactions contained primers at 0.5 μM, dNTPs (0.2 mM each) in PCR buffer and 0.03 U Taq polymerase along with SYBR-green (Molecular Probes, Eugene, OR) at 1:150,000. Aliquots of cDNA were diluted 5-5000 fold to generate relative standard curves to which sample cDNA was compared. […]

B1: BMP2: osteogenic factor included in multi-potential medium (protein, UniProt P12643 283-396, looked up)
Bone morphogenetic protein 2: QAKHKQRKRLKSSCKRHPLYVDFSDVGWNDWIVAPPGYHAFYCHGECPFPLADHLNSTNHAIVQTLVNSVNSKIPKACCVPTELSAISMLYLDENEKVVLKNYQDMVVEGCGCR
markers of osteoblast phenotype (PTHR1 and osteocalcin mRNA): increased both markers of osteoblast phenotype
